The target in this test is Acyl-protein thioesterase 1 (Homo sapiens) (UniProt O75608). In words: inhibition of human lysophospholipase 1 – biochemical, fluorescence polarization, FP-Rh probe ABPP, counter-screen for PME1 inhibitor project, confirmation (AID 2233).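 Also: loss of FP-Rh probe labeling of LYPLA1 seen as lower polarization; 0% = LYPLA1 with DMSO and 100% = wells lacking LYPLA1 enzyme.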 The conditions noted are these: recombinant LYPLA1, FP-Rh probe fluorescence polarization; at 5.9 µM; stronger effect = higher value. For orientation: Polarisation of emitted light reports the rotation of a fluorescent probe.

Protein sequences, listed by entry. Tags and fused reporters are not part of them. Lines headed by an entry give the natural chain unless they say otherwise; changes in a name come on top.
UniProt O75608: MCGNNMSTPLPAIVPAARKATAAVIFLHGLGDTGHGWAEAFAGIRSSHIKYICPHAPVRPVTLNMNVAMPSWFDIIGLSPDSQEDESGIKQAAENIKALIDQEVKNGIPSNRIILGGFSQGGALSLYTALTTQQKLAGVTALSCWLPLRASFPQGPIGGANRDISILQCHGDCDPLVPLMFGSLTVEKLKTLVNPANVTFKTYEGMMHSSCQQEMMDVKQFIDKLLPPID

Only a part is listed here, and it is no random draw. Calls of active or inactive are those of the source.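 The calls were made as follows: active = mean inhibition across replicates above the hit cutoff set in the primary screen (cut at about 15% in these data); inactive = the rest.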

For orientation: inhibition means the relative decrease from the control value, in per cent. Turning to `CN(C)C(=O)c1cc([N+](=O)[O-])cc2c1-c1c(cc([N+](=O)[O-])cc1[N+](=O)[O-])C2=O`, the inhibition is inactive: 0.67%.

As to `Nc1cccc2c([As](=O)(O)O)cccc12`, the inhibition is inactive: 4.71%.

Values taken from PubChem BioAssay AID2233 (The Scripps Research Institute Molecular Screening Center, 2010).
